Test results published in ChEMBL document CHEMBL4011650, “3-Hydroxy-1H-quinazoline-2,4-dione as a New Scaffold To Develop Potent and Selective Inhibitors of the Tumor-Associated Carbonic Anhydrases IX and XII” (J Med Chem, 2017).

Chains of the proteins cited; added tags and fusions are not shown. Lines headed by an entry give the natural chain unless they say otherwise; changes in a name come on top.
UniProt O43570: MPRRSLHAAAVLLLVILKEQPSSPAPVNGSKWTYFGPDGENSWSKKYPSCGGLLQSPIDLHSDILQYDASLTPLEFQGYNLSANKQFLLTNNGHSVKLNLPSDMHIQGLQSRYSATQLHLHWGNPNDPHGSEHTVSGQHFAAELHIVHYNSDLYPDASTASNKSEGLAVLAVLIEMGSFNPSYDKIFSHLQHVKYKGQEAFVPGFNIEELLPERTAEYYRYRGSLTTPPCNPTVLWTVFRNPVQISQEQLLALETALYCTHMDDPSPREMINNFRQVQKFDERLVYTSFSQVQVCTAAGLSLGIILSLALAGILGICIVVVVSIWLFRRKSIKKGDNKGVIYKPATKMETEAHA

Molecular target: Carbonic anhydrase 12 (Homo sapiens, UniProt O43570)

O=C(Nc1ccccc1)Nc1ccc2[nH]c(=O)n(O)c(=O)c2c1
pKi: 6.14

pKi: −log10 of the molar value.
